Source: publication PMC13619035 (British Journal of Clinical Pharmacology, 2026)

Experiment: Single-dose pharmacokinetic study in healthy volunteers, plasma concentrations by LC-MS/MS
Type: in vivo
Conditions: human, po

Tmax: 1.5 h
SMILES: COc1ccc2[nH]c([S+]([O-])Cc3ncc(C)c(OC)c3C)nc2c1 (stereo not shown) [omeprazole]
